D2L/D3 data for 1 compound are collected here from publication PMC3760392 (Bioorganic & medicinal chemistry, 2013).

The chains behind the UniProt entries cited, without tags or fusion partners.
UniProt P19020, whole entry: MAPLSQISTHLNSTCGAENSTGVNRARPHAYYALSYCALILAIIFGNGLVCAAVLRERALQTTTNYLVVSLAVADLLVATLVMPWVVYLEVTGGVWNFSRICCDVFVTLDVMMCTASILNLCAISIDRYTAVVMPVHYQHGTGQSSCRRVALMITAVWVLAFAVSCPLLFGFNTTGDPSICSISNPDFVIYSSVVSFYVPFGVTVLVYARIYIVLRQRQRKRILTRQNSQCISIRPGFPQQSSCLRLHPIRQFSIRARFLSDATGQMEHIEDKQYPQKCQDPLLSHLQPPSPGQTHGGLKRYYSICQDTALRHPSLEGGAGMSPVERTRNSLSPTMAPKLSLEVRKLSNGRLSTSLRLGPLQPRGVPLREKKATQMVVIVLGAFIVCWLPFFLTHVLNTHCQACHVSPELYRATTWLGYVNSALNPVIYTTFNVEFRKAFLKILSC

The test has as its target rD3 receptor (Rattus norvegicus, UniProt P19020). The settings on record: ratio of Ki rD2L / Ki rD3.

Consider `CCCN(CCC)[C@H]1CCc2c(O)cccc2C1` [(−)-5-OH-DPAT, reference compound], for which the D2L/D3 is reported as 43.2.
